Publication PMC11284802 (Journal of Medicinal Chemistry, 2024)

Test: 5-h mouse PK study
Format: in vivo, CD-1 mice
Details: 10 mg/kg p.o., data not shown

## CCN(CCN)c1ccc(Nc2cc(NC3CC3)n3ncc(C#N)c3n2)cc1-n1cnnc1 [Compound 53, 5-((4-((2-Aminoethyl)(ethyl)amino)-3-(4H-1,2,4-triazol-4-yl)phenyl)amino)-7-(cyclopropylamino)pyrazolo[1,5-a]pyrimidine-3-carbonitrile]
  oral bioavailability: no bioavailability
